Measurements reported in BindingDB's records for doi:10.1021/acs.jmedchem.5b01110 (Mayo Clinic, 2015).

Chains of the proteins cited; added tags and fusions are not shown.
UniProt P32238, whole entry L356H: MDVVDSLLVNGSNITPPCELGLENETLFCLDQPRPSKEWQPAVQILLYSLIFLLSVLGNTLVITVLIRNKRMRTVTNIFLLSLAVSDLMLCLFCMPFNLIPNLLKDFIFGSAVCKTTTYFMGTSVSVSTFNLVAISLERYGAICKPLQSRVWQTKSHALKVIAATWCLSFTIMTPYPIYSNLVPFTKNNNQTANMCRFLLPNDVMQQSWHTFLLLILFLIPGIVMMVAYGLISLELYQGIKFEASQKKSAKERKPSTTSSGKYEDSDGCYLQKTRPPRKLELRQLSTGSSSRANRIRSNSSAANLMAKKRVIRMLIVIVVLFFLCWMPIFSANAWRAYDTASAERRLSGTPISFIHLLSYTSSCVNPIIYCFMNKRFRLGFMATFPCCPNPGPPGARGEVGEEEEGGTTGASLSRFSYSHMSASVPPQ
UniProt P32238, whole entry M121A: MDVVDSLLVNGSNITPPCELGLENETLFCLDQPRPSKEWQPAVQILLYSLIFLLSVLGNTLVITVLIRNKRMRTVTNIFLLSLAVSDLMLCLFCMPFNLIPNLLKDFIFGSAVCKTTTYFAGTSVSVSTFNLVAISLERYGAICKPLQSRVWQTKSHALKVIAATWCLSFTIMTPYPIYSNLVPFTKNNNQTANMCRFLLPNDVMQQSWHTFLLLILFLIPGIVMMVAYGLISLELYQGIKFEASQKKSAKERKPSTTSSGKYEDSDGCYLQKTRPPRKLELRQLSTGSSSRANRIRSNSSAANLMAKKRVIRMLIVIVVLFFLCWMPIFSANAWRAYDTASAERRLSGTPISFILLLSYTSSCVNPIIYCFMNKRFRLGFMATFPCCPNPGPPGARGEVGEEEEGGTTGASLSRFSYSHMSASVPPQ

Columns and labels:
[1] = molecular target: T1, Gastrin/cholecystokinin type B receptor (Homo sapiens, UniProt P32239); test: Agonist activity at human CCK2R T2.61N mutant expressed in CHO cells assessed as intracellular calcium response by fluorescence analysis
T1 sequence (P32239 whole entry): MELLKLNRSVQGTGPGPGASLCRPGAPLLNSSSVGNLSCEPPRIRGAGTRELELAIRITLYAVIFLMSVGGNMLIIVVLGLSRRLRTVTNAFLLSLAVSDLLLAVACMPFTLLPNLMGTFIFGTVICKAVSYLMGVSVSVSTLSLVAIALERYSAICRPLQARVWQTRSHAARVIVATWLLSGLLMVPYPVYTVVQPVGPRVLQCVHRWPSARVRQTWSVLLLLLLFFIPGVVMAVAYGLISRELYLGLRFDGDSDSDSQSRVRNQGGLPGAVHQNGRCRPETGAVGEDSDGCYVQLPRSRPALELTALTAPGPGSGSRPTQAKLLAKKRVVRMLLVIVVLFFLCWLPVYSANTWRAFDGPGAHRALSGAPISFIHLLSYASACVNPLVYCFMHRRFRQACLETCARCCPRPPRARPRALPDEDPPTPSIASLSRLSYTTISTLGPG

[2] = molecular target: T1, Gastrin/cholecystokinin type B receptor; test: Agonist activity at human CCK2R V3.28T, S3.29T mutant expressed in CHO cells assessed as intracellular calcium response by fluorescence analysis
[3] = molecular target: T2, Cholecystokinin receptor type A (Homo sapiens, UniProt P32238); test: Displacement of [125I-BDZ-1] from human CCK1R L7.39H mutant expressed in CHO cells after 60 mins by scintillation counter
[4] = molecular target: T2, Cholecystokinin receptor type A; test: Displacement of [125I-BDZ-1] from human CCK1R M3.32A mutant expressed in CHO cells after 60 mins by scintillation counter

| EC50 [1] [µM] | EC50 [2] [µM] | IC50 [3] [µM] | IC50 [4] [µM] | SMILES |
| --- | --- | --- | --- | --- |
| < 1 | < 1 |  |  | CC(C)N(Cc1ccccc1)C(=O)CN1C(=O)[C@@H](Cc2c[nH]c3ccccc23)c2nnc(-c3ccccc3)n2-c2ccccc21 [2-((4S)-4-((1H-indol-3-yl)methyl)-5-oxo-1-phenyl-4H-benzo[b][1,2,4]triazolo[4,3-d][1,4]diazepin-6(5H)-yl)-N-benzyl-N-isopropylacetamide] |
|  |  | < 1 | < 1 | Cc1cc(C)cc(C[C@H]2CCCCN2C(=O)CN2C(=O)[C@@H](Cc3n[nH]c4ccccc34)c3nnc(-c4ccccc4)n3-c3ccccc32)c1 |
